Source: patent US9896418B2 (dated 2018)

Test system: 786-O cells
Assay: VEGF ELISA Assay
Assay type: cell-based
Details: read-out: Mean VEGF ELISA EC50

For `O=S(=O)(c1ccc(Oc2cc(F)cc(Cl)c2)c(Br)c1CO)C(F)F` [Compound 74, (2-bromo-3-(3-chloro-5-fluorophenoxy)-6-((difluoromethyl)sulfonyl)phenyl)methanol], the EC50 was 0.32 µM.
